Values quoted from earlier work, collected in paper PMC10682952.

By UniProt entry, the sequences of proteins in these tests, tags left out. Residues count along the entry.
UniProt P19235, 25-250: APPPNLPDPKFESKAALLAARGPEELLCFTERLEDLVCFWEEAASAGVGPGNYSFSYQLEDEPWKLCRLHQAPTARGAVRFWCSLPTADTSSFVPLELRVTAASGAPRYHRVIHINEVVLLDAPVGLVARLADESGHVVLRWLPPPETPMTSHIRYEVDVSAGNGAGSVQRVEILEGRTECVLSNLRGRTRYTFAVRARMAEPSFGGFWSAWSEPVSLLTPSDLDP

Molecular target: EPOR ECD (Homo sapiens) (UniProt P19235)
Assay: radio-receptor assay

**Q.** Which Kd does the source give for EPO (from UniProt P01588) here?
**A.** 0.17 nM
